Assay: Measurement of the entrapment ratio (ultracentrifugation, HPLC of active compound in the filtrate)
Format: physicochemical
Conditions: E7107, internal phase 250 mM HP-β-cyclodextrin/100 mM citric acid (pH=5.5)
Description: The entrapment ratio was determined as described below.
The entrapment ratio was calculated using the formula below.

Entrapment ratio (%) (40° C., 1 hour): 99.4%
Entrapment ratio (%) (50° C., 5 minutes): 99.4%
Entrapment ratio (%) (60° C., 5 minutes): 99.4%
Structure (SMILES): CCC(O)C(C)C1OC1CC(C)(O)/C=C/C=C(\C)C1OC(=O)CC(O)CCC(C)(O)C(OC(=O)N2CCN(C3CCCCCC3)CC2)/C=C/C1C (stereo not drawn) [E7107, (8E,12E,14E)-7-{(4-cycloheptylpiperazin-1-yl)carbonyl}oxy-3,6,16,21-tetrahydroxy-6,10,12,16,20-pentamethyl-18,19-epoxytricosa-8,12,14-trien-11-olide]

Source: patent publication US9968583B2, “Method of manufacture of liposome composition” (EISAI R & D MANAGEMENT CO., LTD., priority 2009, dated 2018)
